Experiment [1] concerns the target Histamine H3 receptor (Rattus norvegicus, UniProt Q9QYN8). The experiment in a line: Binding affinity to rat cortical histamine H3 receptor.
For experiment [2], the target named is Histamine H3 receptor (Homo sapiens, UniProt Q9Y5N1). Put plainly: Binding affinity to human histamine H3 receptor.

Sequences of proteins named here, by UniProt entry; tags and fusion partners are left off. A change or cut given only in a name is not applied to a line headed by its entry.
UniProt Q9QYN8: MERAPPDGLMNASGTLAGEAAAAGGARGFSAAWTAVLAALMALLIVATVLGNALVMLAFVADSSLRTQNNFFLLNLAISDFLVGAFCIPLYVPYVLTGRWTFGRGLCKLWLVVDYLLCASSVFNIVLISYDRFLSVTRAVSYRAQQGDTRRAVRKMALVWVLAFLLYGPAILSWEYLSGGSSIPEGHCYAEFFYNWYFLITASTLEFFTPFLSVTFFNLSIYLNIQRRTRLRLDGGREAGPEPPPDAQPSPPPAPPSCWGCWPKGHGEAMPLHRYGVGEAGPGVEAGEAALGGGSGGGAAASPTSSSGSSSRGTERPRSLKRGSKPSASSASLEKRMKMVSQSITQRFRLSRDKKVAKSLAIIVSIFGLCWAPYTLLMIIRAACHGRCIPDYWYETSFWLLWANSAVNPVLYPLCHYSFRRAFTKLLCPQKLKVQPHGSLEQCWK
UniProt Q9Y5N1: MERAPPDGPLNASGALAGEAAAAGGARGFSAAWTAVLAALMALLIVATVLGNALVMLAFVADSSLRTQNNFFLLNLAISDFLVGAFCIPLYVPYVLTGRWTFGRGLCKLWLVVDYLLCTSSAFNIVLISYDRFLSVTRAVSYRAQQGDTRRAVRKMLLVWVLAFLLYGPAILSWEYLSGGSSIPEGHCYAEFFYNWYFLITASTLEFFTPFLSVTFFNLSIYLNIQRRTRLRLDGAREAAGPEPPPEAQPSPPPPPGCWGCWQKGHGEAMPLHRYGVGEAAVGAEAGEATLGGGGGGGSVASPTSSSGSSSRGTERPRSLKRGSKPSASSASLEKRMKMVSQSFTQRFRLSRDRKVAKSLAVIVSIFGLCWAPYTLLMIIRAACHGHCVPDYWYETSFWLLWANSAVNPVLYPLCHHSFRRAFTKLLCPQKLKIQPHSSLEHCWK

As usually defined, the Ki is a measure of affinity in units of concentration, obtained from inhibition or displacement. Higher therefore signals lower affinity. In the case of `C[C@H]1CC[C@H](C)N1CCCOc1ccc(-c2ccc(C(=O)N3CCOCC3)cc2)cc1` (single isomer, unassigned) [A-349,821], affinity on Histamine H3 receptor [1] was put at a Ki of 0.398 nM.
For the compound `C[C@@H](NC(=O)c1ccco1)C(=O)N1CCN(CCCOc2ccc(C(=O)C3CC3)cc2)CC1`, the Ki on Histamine H3 receptor [2] was 100 nM.

These data come from ChEMBL document CHEMBL2150959, “Histamine H3 receptor as a drug discovery target” (J Med Chem, 2011).
